We go through 6 compounds from patent US20210395313A1, “PEPTIDE PAC1 ANTAGONISTS” (AMGEN INC., priority 2017, published 2021).

Structures are written as SMILES.

One experiment addresses T1, human PAC1 receptor (Homo sapiens, UniProt P41586).
T1 construct: SHSY-5Y (human neuroblastoma cell line) and RG-2 (rat glioma cell line) cells endogenously express human and rat PAC1 receptors, respectively; endogenous in cells; host or cells: SHSY-5Y human neuroblastoma cells
T1 sequence (P41586 21-468): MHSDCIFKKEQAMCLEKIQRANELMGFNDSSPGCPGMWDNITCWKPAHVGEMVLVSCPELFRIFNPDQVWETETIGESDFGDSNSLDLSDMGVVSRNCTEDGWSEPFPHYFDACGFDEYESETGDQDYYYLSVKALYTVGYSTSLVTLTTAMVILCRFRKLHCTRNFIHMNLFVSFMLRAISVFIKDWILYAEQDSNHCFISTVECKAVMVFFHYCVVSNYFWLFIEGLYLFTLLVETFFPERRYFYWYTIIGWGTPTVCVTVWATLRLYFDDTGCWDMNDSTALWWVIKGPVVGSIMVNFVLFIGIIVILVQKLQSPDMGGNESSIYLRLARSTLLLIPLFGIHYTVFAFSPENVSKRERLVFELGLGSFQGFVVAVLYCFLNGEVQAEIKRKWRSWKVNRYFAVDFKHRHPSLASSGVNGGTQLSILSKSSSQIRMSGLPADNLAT
Put plainly: LANCE Ultra cAMP accumulation antagonist assay in SHSY-5Y cells.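 Further: inhibition of cAMP accumulation evoked by PAC1 agonist at its EC80 in SHSY-5Y cells endogenously expressing receptor, 30 min preincubation then 15 min agonist, TR-FRET readout.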 The format is cell-based.

The target of a further experiment is T2, rat PAC1 receptor (Rattus norvegicus, UniProt P32215).
T2 construct: SHSY-5Y (human neuroblastoma cell line) and RG-2 (rat glioma cell line) cells endogenously express human and rat PAC1 receptors, respectively; endogenous in cells; host or cells: RG-2 rat glioma cells
T2 sequence (P32215 20-523): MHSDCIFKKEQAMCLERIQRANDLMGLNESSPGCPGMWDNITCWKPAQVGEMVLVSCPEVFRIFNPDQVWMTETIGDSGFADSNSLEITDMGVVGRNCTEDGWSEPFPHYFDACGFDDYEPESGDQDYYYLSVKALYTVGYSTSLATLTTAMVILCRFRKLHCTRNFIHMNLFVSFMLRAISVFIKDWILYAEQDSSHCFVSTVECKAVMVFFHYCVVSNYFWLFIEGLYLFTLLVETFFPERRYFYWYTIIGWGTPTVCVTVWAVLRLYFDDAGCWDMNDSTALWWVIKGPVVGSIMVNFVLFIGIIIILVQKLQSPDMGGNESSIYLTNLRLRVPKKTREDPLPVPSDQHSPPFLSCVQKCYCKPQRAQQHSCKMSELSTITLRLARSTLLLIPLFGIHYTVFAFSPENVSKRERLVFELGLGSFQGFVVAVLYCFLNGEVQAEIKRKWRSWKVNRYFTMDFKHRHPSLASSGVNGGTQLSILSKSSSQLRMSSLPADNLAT
Nature of the experiment: LANCE Ultra cAMP accumulation antagonist assay in RG-2 cells.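 Further: RG-2 rat glioma cells endogenously expressing PAC1, test peptide preincubated 30 min, then PAC1 agonist added at its EC80 for 15 min, cAMP accumulation read by LANCE Ultra.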 It is filed as cell-based.

What is called IC50 is the concentration needed to halve the response being measured. A lower IC50 goes with inhibition by little substance. Consider `CC[C@H](C)[C@H](NC(=O)[C@H](C)NC(=O)[C@H](CCCCN)NC(=O)[C@H](CCCNC(=N)N)NC(=O)[C@H](Cc1ccccc1)NC(=O)[C@H](CCC(N)=O)NC(=O)[C@@H]1CSSC[C@H](N)C(=O)N[C@@H](CC(=O)O)C(=O)N[C@@H](C)C(=O)N[C@@H]([C@@H](C)O)C(=O)N1)C(=O)N[C@@H](CC(=O)O)C(=O)N[C@@H](CC(=O)O)C(=O)N[C@H]1CSSC[C@@H](C(=O)N[C@@H](CCSC)C(=O)N[C@@H](CCCCN)C(=O)N[C@@H](CCC(N)=O)C(=O)N[C@@H](CCCCN)C(=O)N[C@@H](CCCCN)C(=O)N[C@@H](CCCCN)C(=O)N[C@@H](CCC(=O)O)C(=O)N[C@@H](Cc2ccccc2)C(=O)N[C@@H](CCCCN)C(=O)N[C@@H](C)C(=O)NCC(N)=O)NC(=O)C(C)(C)NC(=O)[C@H](CCCCN)NC(=O)[C@H](Cc2ccccc2)NC(=O)[C@H](CCCCN)NC(=O)[C@H](CO)NC(=O)CNC(=O)[C@@H]2CCCN2C(=O)[C@H](C(C)C)NC(=O)[C@H](CC(N)=O)NC(=O)[C@H](CO)NC(=O)[C@H](Cc2c[nH]cn2)NC(=O)[C@H](Cc2c[nH]cn2)NC(=O)[C@H](CCC(=O)O)NC(=O)[C@H](CCC(N)=O)NC(=O)[C@H](CCCCN)NC(=O)[C@H](CCC(N)=O)NC1=O` [compound 97], for which the IC50 against human PAC1 receptor and on rat PAC1 receptor was 1 to 100 nM in each case.
With `CCCC[C@H](NC(=O)[C@@H]1CSSC[C@H](NC(=O)[C@H](CC(=O)O)NC(=O)[C@H](CC(=O)O)NC(=O)[C@@H](NC(=O)[C@H](C)NC(=O)[C@H](CCCCN)NC(=O)[C@H](CCCNC(=N)N)NC(=O)[C@H](Cc2ccccc2)NC(=O)[C@H](CCC(N)=O)NC(=O)[C@@H]2CSSC[C@H](N)C(=O)N[C@@H](CC(=O)O)C(=O)N[C@@H](C)C(=O)N[C@@H]([C@@H](C)O)C(=O)N2)[C@@H](C)CC)C(=O)N[C@@H](CC(=O)O)C(=O)N[C@@H](CCCCN)C(=O)N[C@@H](CCC(N)=O)C(=O)N[C@@H](C)C(=O)N[C@@H](Cc2c[nH]cn2)C(=O)N[C@@H](Cc2c[nH]cn2)C(=O)N[C@@H](CO)C(=O)N[C@@H](CC(N)=O)C(=O)N[C@@H](C(C)C)C(=O)N2CCC[C@H]2C(=O)NCC(=O)N[C@@H](CC(N)=O)C(=O)N[C@@H](CO)C(=O)N[C@@H](Cc2ccccc2)C(=O)N[C@@H](CCCCN)C(=O)NC(C)(C)C(=O)N1)C(=O)N[C@@H](CCCCN)C(=O)N[C@@H](CCC(N)=O)C(=O)N[C@@H](CCCCN)C(=O)N[C@@H](CCCCN)C(=O)N[C@@H](CCCCN)C(=O)N[C@@H](CCC(=O)O)C(=O)N[C@@H](Cc1ccccc1)C(=O)N[C@@H](CCCCN)C(N)=O` [compound 258], the IC50 against human PAC1 receptor was 1 to 100 nM; against rat PAC1 receptor, 0.01 to 1 nM.
Turning to `CC[C@H](C)[C@H](NC(=O)[C@H](C)NC(=O)[C@H](CCCCN)NC(=O)[C@H](CCCNC(=N)N)NC(=O)[C@H](Cc1ccccc1)NC(=O)[C@H](CCC(N)=O)NC(=O)[C@@H]1CSSC[C@H](N)C(=O)N[C@@H](CC(=O)O)C(=O)N[C@@H](C)C(=O)N[C@@H]([C@@H](C)O)C(=O)N1)C(=O)N[C@@H](CC(=O)O)C(=O)N[C@@H](CC(=O)O)C(=O)N[C@H]1CSSC[C@@H](C(=O)N[C@@H](CCSC)C(=O)N[C@@H](CCCCN)C(=O)N[C@@H](CCC(N)=O)C(=O)N[C@@H](CCCCN)C(=O)N[C@@H](CCCCN)C(=O)N[C@@H](CCCCN)C(=O)N[C@@H](CCC(=O)O)C(=O)N[C@@H](Cc2ccccc2)C(=O)N[C@@H](CCCCN)C(N)=O)NC(=O)C(C)(C)NC(=O)[C@H](CCCCN)NC(=O)[C@H](Cc2ccccc2)NC(=O)[C@H](C(C)C)NC(=O)[C@H](CO)NC(=O)[C@H](CC(N)=O)NC(=O)[C@H](CO)NC(=O)[C@H](Cc2c[nH]cn2)NC(=O)[C@H](Cc2c[nH]cn2)NC(=O)[C@H](C)NC(=O)[C@H](CCC(N)=O)NC(=O)[C@H](CCCCN)NC(=O)[C@H](CCC(N)=O)NC1=O` [compound 256], the concentration for half-maximal inhibition (IC50) against human PAC1 receptor and at rat PAC1 receptor was 1 to 100 nM in each case.
For `CC[C@H](C)[C@H](NC(=O)[C@H](C)NC(=O)[C@H](CCCCN)NC(=O)[C@H](CCCNC(=N)N)NC(=O)[C@H](Cc1ccccc1)NC(=O)[C@H](CCC(N)=O)NC(=O)[C@@H]1CSSC[C@H](N)C(=O)N[C@@H](CC(=O)O)C(=O)N[C@@H](C)C(=O)N[C@@H]([C@@H](C)O)C(=O)N1)C(=O)N[C@@H](CC(=O)O)C(=O)N[C@@H](CC(=O)O)C(=O)N[C@H]1CSSC[C@@H](C(=O)N[C@@H](CCSC)C(=O)N[C@@H](CCCCN)C(=O)N[C@@H](CCC(N)=O)C(=O)N[C@@H](CCCCN)C(=O)N[C@@H](CCCCN)C(=O)N[C@@H](CCCCN)C(=O)N[C@@H](CCC(=O)O)C(=O)N[C@@H](Cc2ccccc2)C(=O)N[C@@H](CCCCN)C(N)=O)NC(=O)C(C)(C)NC(=O)[C@H](CCCCN)NC(=O)[C@H](Cc2ccccc2)NC(=O)[C@H](C(C)C)NC(=O)[C@H](CO)NC(=O)[C@H](CO)NC(=O)[C@H](Cc2c[nH]cn2)NC(=O)[C@H](Cc2c[nH]cn2)NC(=O)[C@H](C)NC(=O)[C@H](CCC(N)=O)NC(=O)[C@H](CCCCN)NC(=O)[C@H](CC(=O)O)NC1=O` [compound 245], the IC50 against human PAC1 receptor was 1 to 100 nM; against rat PAC1 receptor, 0.01 to 1 nM.
In the same order, the values of `CC[C@H](C)[C@H](NC(=O)[C@H](C)NC(=O)[C@H](CCCCN)NC(=O)[C@H](CCCNC(=N)N)NC(=O)[C@H](Cc1ccccc1)NC(=O)[C@H](CCC(N)=O)NC(=O)[C@@H]1CSSC[C@H](N)C(=O)N[C@@H](CC(=O)O)C(=O)N[C@@H](C)C(=O)N[C@@H]([C@@H](C)O)C(=O)N1)C(=O)N[C@@H](CC(=O)O)C(=O)N[C@@H](CC(=O)O)C(=O)N[C@H]1CSSC[C@@H](C(=O)N[C@@H](CCSC)C(=O)N[C@@H](CCCCN)C(=O)N[C@@H](CCC(N)=O)C(=O)N[C@@H](CCCCN)C(=O)N[C@@H](CCCCN)C(=O)N[C@@H](CCCCN)C(=O)N[C@@H](CCC(=O)O)C(=O)N[C@@H](Cc2ccccc2)C(=O)N[C@@H](CCCCN)C(=O)N[C@@H](C)C(=O)NCC(N)=O)NC(=O)C(C)(C)NC(=O)[C@H](CCCCN)NC(=O)[C@H](Cc2ccccc2)NC(=O)[C@H](C(C)C)NC(=O)[C@H](C)NC(=O)[C@H](C)NC(=O)[C@@H]2CCCN2C(=O)CNC(=O)[C@H](CC(N)=O)NC(=O)[C@H](CO)NC(=O)[C@H](Cc2c[nH]cn2)NC(=O)[C@H](Cc2c[nH]cn2)NC(=O)[C@H](C)NC(=O)[C@H](CCC(N)=O)NC(=O)[C@H](CCCCN)NC(=O)[C@H](CCC(N)=O)NC1=O` [compound 227] are 0.01 to 1 nM and 0.01 to 1 nM.
Take `CC[C@H](C)[C@H](NC(=O)[C@H](C)NC(=O)[C@H](CCCCN)NC(=O)[C@H](CCCNC(=N)N)NC(=O)[C@H](Cc1ccccc1)NC(=O)[C@H](CCC(N)=O)NC(=O)[C@@H]1CSSC[C@H](N)C(=O)N[C@@H](CC(=O)O)C(=O)N[C@@H](C)C(=O)N[C@@H]([C@@H](C)O)C(=O)N1)C(=O)N[C@@H](CC(=O)O)C(=O)N[C@@H](CC(=O)O)C(=O)N[C@H]1CSSC[C@@H](C(=O)N[C@@H](CCSC)C(=O)N[C@@H](CCCCN)C(=O)N[C@@H](CCC(N)=O)C(=O)N[C@@H](CCCCN)C(=O)N[C@@H](CCCCN)C(=O)N[C@@H](CCCCN)C(=O)N[C@@H](CCC(=O)O)C(=O)N[C@@H](Cc2ccccc2)C(=O)N[C@@H](CCCCN)C(=O)N[C@@H](C)C(=O)NCC(N)=O)NC(=O)C(C)(C)NC(=O)[C@H](CCCCN)NC(=O)[C@H](Cc2ccccc2)NC(=O)[C@H](C(C)C)NC(=O)[C@H](CO)NC(=O)CNC(=O)[C@@H]2CCCN2C(=O)[C@H](C(C)C)NC(=O)[C@H](CC(N)=O)NC(=O)[C@H](CO)NC(=O)[C@H](Cc2c[nH]cn2)NC(=O)[C@H](Cc2ccc(O)cc2)NC(=O)[C@H](C)NC(=O)[C@H](CCC(N)=O)NC(=O)[C@H](CCCCN)NC(=O)[C@H](CCC(N)=O)NC1=O` [compound 235]: the IC50 against human PAC1 receptor and against rat PAC1 receptor was 0.01 to 1 nM each time.
